Assay results from US20260382774A1, “DECREASED RETENTION OF MINIPROTEINS IN KIDNEY” (published 2026).

Sequences of proteins named here, by UniProt entry; tags and fusion partners are left off. Residues count along the entry.
UniProt Q96NY8, 32-510 limits assumed: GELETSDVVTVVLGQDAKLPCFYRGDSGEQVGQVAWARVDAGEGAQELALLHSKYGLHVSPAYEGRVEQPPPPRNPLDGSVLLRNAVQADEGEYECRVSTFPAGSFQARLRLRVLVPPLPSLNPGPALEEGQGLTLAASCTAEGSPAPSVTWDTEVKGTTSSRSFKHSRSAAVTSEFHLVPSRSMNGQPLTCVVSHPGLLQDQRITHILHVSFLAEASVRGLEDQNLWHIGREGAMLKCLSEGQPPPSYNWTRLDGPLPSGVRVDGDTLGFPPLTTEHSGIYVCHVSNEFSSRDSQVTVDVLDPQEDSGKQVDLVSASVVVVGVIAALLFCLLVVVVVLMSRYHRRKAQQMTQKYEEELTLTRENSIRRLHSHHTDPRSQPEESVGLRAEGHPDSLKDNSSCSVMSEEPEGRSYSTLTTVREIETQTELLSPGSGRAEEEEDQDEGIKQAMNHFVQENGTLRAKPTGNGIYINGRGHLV

What was measured:
[1] = Radionuclide incorporation of DOTA-compounds (thin-layer chromatography); conditions: Indium-111
[2] = In vivo biodistribution of 111In-labeled test articles, SPECT/CT, kidney; conditions: FIG. 1; Nectin-4 charge variant conjugates; 4 and 24 hours post-administration
[3] = In vitro metabolic stability in mouse plasma
[4] = molecular target: T1, Nectin-4 (Homo sapiens, UniProt Q96NY8); assay: DELFIA whole cell binding assay (KD, Ki), Nectin-4; conditions: read-out: DELFIA Ki, Table 4B
[5] = molecular target: T1, Nectin-4; assay: Surface plasmon resonance binding, Nectin-4; conditions: read-out: SPR KD, Table 4B

Structure (SMILES)	% radionuclide incorporation [1]	kidney retention [2]	mPlasma (t½ hr) [3]	Ki [4]	Kd [5]
CC[C@H](C)[C@@H]1NC(=O)[C@H](CC(=O)O)NC(=O)CNC(=O)CNC(=O)[C@H](CCCNC(N)=O)NC(=O)[C@H](CC(C)C)NC(=O)[C@H](CCCNC(N)=O)NC(=O)[C@H](CCCCNC(C)=O)NC(=O)[C@H](CC(C)C)NC(=O)[C@H](C)NC(=O)[C@H]([C@@H](C)O)NC(=O)[C@H](Cc2ccccc2)NC(=O)[C@H](Cc2ccccc2)NC(=O)[C@H](CCC(=O)O)NC(=O)[C@H](CCC(=O)O)NC(=O)[C@H](CC(=O)O)NC(=O)[C@H](Cc2ccc(O)cc2)NC(=O)[C@H](CCC(=O)O)NC(=O)[C@@H](NC(=O)CCOCCOCCOCCOCCNC(=O)CN2CCN(CC(=O)O)CCN(CC(=O)O)CCN(CC(=O)O)CC2)CSSC[C@@H]2NC(=O)[C@H](CC(C)C)NC(=O)[C@H](CCCCN)NC(=O)[C@@H]3CCCN3C(=O)[C@H](C(C)C)NC(=O)[C@H](CCCCN)NC(=O)[C@H](CCCCN)NC(=O)[C@H](Cc3ccccc3)NC(=O)[C@H](CCCCN)NC(=O)[C@H](CCCCN)NC(=O)[C@H](CCCCN)NC(=O)[C@H]([C@@H](C)CC)NC(=O)[C@H](Cc3ccc(O)cc3)NC(=O)[C@H](Cc3ccc(O)cc3)NC(=O)[C@H](CSSC[C@@H](C(N)=O)NC(=O)CNC(=O)[C@H](CC(C)C)NC(=O)[C@H](CCCCNC(C)=O)NC(=O)[C@H](CC(=O)O)NC(=O)[C@H](CC(C)C)NC(=O)[C@H]([C@@H](C)CC)NC(=O)[C@H](CCC(=O)O)NC(=O)[C@H](CCC(=O)O)NC(=O)[C@H]([C@@H](C)CC)NC2=O)NC1=O	98%	Reduced levels of kidney retention	>12 h	–	–
CCCC[C@H](NC(=O)[C@@H](NC(=O)[C@H](CCC(N)=O)NC(=O)CNC(=O)[C@H](Cc1c[nH]cn1)NC(=O)[C@@H](NC(=O)[C@H](CC(C)C)NC(=O)[C@H](CC(N)=O)NC(=O)[C@@H]1CCCN1C(=O)[C@H](CC(C)C)NC(=O)[C@H](Cc1c[nH]c2ccccc12)NC(=O)[C@@H](NC(=O)[C@@H](NC(=O)[C@H](CCC(=O)O)NC(=O)[C@H](CO)NC(=O)[C@H](CC(C)C)NC(=O)[C@H](C)NC(=O)[C@H](C)NC(=O)[C@@H](NC(=O)[C@H](CCCCN)NC(=O)[C@H](CCC(=O)O)NC(=O)[C@H](CCCCN)NC(=O)[C@H](C)NC(=O)[C@H](Cc1ccc(O)cc1)NC(=O)[C@H](CCCCN)NC(=O)[C@H](C)NC(=O)[C@H](CCC(=O)O)NC(=O)[C@H](C)NC(=O)CCOCCOCCOCCOCCNC(=O)CN(C)C(=O)CNC(=O)CNC(=O)CCOCCOCCOCCOCCNC(=O)CN1CCN(CC(=O)O)CCN(CC(=O)O)CCN(CC(=O)O)CC1)[C@@H](C)CC)[C@@H](C)CC)[C@@H](C)CC)[C@@H](C)O)[C@@H](C)CC)C(=O)N[C@@H](C)C(=O)N[C@@H](Cc1ccccc1)C(=O)N[C@H](C(=O)N[C@@H](C)C(=O)N[C@@H](C)C(=O)N[C@@H](CC(C)C)C(=O)N[C@@H](CC(N)=O)C(=O)N[C@@H](CC(=O)O)C(=O)N[C@@H](CC(=O)O)C(=O)N1CCC[C@H]1C(=O)N[C@@H](CO)C(=O)N[C@@H](CCC(N)=O)C(=O)N[C@@H](CO)C(=O)N[C@@H](CO)C(=O)N[C@@H](CCC(=O)O)C(=O)N[C@@H](CC(C)C)C(=O)N[C@@H](CC(C)C)C(=O)N[C@@H](CO)C(=O)N[C@@H](CCC(=O)O)C(=O)N[C@@H](C)C(=O)N[C@@H](CCCCN)C(=O)N[C@@H](CCCCN)C(=O)N[C@@H](CC(C)C)C(=O)N[C@@H](CC(N)=O)C(=O)N[C@@H](CC(=O)O)C(=O)N[C@@H](CO)C(=O)N[C@@H](CCC(N)=O)C(=O)N[C@@H](C)C(=O)N1CCC[C@H]1C(=O)N[C@@H](CCCCN)C(N)=O)[C@@H](C)CC.[In+3]	–	–	–	10 nM	2.69 nM
CC[C@H](C)[C@@H]1NC(=O)[C@H](CC(=O)O)NC(=O)CNC(=O)CNC(=O)[C@H](CCCNC(=N)N)NC(=O)[C@H](CC(C)C)NC(=O)[C@H](CCCNC(=N)N)NC(=O)[C@H](CCCCN)NC(=O)[C@H](CC(C)C)NC(=O)[C@H](C)NC(=O)[C@H]([C@@H](C)O)NC(=O)[C@H](Cc2ccccc2)NC(=O)[C@H](Cc2ccccc2)NC(=O)[C@H](CCC(=O)O)NC(=O)[C@H](CCC(=O)O)NC(=O)[C@H](CC(=O)O)NC(=O)[C@H](Cc2ccc(O)cc2)NC(=O)[C@H](CCC(=O)O)NC(=O)[C@@H](NC(=O)CCOCCOCCOCCOCCNC(=O)CN2CCN(CC(=O)O)CCN(CC(=O)O)CCN(CC(=O)O)CC2)CSSC[C@@H]2NC(=O)[C@H](CC(C)C)NC(=O)[C@H](CCCCNC(C)=O)NC(=O)[C@@H]3CCCN3C(=O)[C@H](C(C)C)NC(=O)[C@H](CCCCNC(C)=O)NC(=O)[C@H](CCCCNC(C)=O)NC(=O)[C@H](Cc3ccccc3)NC(=O)[C@H](CCCCNC(C)=O)NC(=O)[C@H](CCCCNC(C)=O)NC(=O)[C@H](CCCCNC(C)=O)NC(=O)[C@H]([C@@H](C)CC)NC(=O)[C@H](Cc3ccc(O)cc3)NC(=O)[C@H](Cc3ccc(O)cc3)NC(=O)[C@H](CSSC[C@@H](C(N)=O)NC(=O)CNC(=O)[C@H](CC(C)C)NC(=O)[C@H](CCCCN)NC(=O)[C@H](CC(=O)O)NC(=O)[C@H](CC(C)C)NC(=O)[C@H]([C@@H](C)CC)NC(=O)[C@H](CCC(=O)O)NC(=O)[C@H](CCC(=O)O)NC(=O)[C@H]([C@@H](C)CC)NC2=O)NC1=O	99%	Reduced levels of kidney retention	>12 h	–	–
